From publication PMC8470483, “Bidirectional Influences of Cranberry on the Pharmacokinetics and Pharmacodynamics of Warfarin with Mechanism Elucidation” (Nutrients, 2021)

Chains of the proteins cited; added tags and fusions are not shown.
UniProt P05177, whole entry: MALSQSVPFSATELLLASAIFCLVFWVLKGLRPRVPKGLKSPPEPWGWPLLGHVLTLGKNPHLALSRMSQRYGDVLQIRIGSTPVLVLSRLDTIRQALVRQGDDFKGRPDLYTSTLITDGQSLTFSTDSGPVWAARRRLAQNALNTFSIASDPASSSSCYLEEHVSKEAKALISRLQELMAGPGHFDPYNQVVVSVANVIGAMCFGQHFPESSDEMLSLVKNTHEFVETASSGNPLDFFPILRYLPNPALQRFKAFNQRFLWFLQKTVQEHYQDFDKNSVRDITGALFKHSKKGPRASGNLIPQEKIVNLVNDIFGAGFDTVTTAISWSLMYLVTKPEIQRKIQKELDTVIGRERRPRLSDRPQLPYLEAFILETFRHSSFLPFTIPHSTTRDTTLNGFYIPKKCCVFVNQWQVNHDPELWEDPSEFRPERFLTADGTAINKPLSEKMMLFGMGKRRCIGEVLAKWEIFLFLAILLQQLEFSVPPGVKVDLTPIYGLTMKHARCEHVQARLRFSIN

Target: T1, CYP1A2 (Homo sapiens, UniProt P05177)
T1 construct: purchased
Assay: Vivid CYP450 screening kit, CYP1A2 activity
Type: biochemical
Conditions: positive control, 3 μM, in blank serum

Decrease of CYP1A2 activity: 31%
SMILES: O=c1cc(-c2ccccc2)oc2c1ccc1ccccc12 [ANF, α-naphthoflavone]
